Experimental findings from ChEMBL document CHEMBL4219032, “Triple Reuptake Inhibitors as Potential Therapeutics for Depression and Other Disorders: Design Paradigm and Developmental Challenges” (J Med Chem, 2018) are described below.

Chains of the proteins cited; added tags and fusions are not shown.
UniProt P31645, whole entry: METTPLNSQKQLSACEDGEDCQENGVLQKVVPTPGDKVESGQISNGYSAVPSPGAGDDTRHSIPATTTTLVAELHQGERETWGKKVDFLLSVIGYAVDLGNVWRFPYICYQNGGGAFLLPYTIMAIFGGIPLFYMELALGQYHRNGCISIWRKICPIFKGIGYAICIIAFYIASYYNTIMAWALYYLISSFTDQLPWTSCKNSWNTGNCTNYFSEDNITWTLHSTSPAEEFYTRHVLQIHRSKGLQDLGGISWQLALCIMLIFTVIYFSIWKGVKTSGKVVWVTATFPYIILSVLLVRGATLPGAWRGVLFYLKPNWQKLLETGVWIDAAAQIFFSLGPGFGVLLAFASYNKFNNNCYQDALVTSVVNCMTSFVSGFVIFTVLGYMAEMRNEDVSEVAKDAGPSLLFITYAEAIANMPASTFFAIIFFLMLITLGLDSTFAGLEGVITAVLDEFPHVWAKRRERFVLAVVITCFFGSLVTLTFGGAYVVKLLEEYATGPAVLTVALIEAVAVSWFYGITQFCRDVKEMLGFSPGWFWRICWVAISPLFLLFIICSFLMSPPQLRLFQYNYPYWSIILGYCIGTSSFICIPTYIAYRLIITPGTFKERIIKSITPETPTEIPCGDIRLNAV

This experiment addresses Sodium-dependent serotonin transporter (Homo sapiens, UniProt P31645).

Compound `N[C@H]1CC[C@H](c2ccc(Cl)c(Cl)c2)c2ccccc21` had a concentration for half-maximal inhibition (IC50) of 14 nM.
